Publication PMC11477289, “Low-Basicity 5-HT6 Receptor Ligands from the Group of Cyclic Arylguanidine Derivatives and Their Antiproliferative Activity Evaluation” (International Journal of Molecular Sciences, 2024)

Sequences of proteins named here, by UniProt entry; tags and fusion partners are left off. Residues count along the entry.
UniProt P02768, 25-609: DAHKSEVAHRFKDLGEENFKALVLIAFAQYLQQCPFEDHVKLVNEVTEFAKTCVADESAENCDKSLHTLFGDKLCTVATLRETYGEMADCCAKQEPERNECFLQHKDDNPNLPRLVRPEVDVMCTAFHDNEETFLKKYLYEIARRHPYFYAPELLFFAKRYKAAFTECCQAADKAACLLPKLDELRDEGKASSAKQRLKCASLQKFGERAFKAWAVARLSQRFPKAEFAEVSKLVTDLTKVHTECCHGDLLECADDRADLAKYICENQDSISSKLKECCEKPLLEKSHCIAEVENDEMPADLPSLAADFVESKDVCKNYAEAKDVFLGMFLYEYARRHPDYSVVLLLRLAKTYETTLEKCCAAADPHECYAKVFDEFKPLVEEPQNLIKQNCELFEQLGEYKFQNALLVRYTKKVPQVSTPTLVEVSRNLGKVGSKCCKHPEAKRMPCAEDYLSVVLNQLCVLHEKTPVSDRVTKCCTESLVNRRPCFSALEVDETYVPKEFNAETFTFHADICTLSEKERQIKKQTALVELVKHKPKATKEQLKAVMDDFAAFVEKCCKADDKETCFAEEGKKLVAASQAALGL

Biological target: human serum albumin (HSA) (Homo sapiens, UniProt P02768)
Test: Binding to HSA, Chiralpak HSA column

COc1ccc(C(CN(C)C)C2(O)CCCCC2)cc1 (stereo not shown) [Venlafaxine, reference compound]
%HSA: 22.4%
